Article PMC3676426 (European journal of clinical pharmacology, 2013)

Format: in vivo, human
Conditions: atorvastatin 40 mg for five days, CGC/CGC, CGC/TTT

Structure (SMILES): CC(C)c1c(C(=O)Nc2ccccc2)c(-c2ccccc2)c(-c2ccc(F)cc2)n1CC[C@@H](O)C[C@@H](O)CC(=O)O [Atorvastatin, atorvastatin]
- influence of ABCB1 diplotype on pharmacokinetic parameters: did not differ significantly
